This assay has as its target T1, hCA XII (Homo sapiens, UniProt O43570).
T1 construct: gene CA12; recombinant, obtained in-house
As to the kind of experiment: stopped-flow CO2 hydration. The class given is biochemical. The settings on record: CO2 1.7-17 mM, 20 mM Hepes pH 7.5, 20 mM Na2SO4, 15 min preincubation, room temperature; read-out: KI (μM)^a^,^b / hCA XII^c.

Sequences of proteins named here, by UniProt entry; tags and fusion partners are left off. Residues count along the entry.
UniProt O43570, 30-289 limits assumed: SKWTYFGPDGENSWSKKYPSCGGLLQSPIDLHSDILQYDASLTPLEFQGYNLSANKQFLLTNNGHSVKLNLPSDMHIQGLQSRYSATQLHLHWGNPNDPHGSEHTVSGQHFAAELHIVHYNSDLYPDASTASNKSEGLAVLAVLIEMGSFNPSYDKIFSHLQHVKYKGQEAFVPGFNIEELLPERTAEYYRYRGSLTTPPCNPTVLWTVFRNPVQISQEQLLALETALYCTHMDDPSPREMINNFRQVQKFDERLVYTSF

As for `O=C(NO)c1ccccc1` [compound 9, hydroxamic acid 9], the Ki came to 9.51 µM.

For the origin of these results see publication PMC6009921, “Carbon- versus sulphur-based zinc binding groups for carbonic anhydrase inhibitors?” (Journal of Enzyme Inhibition and Medicinal Chemistry, 2018).
